Test system: HT29-MTX-E12 (E12) monolayers

Substance: poly(2-(dimethylamino-ethyl) methacrylate) [Polymer “D”]
- adhesion with mucosal gel layer (HT29-MTX-E12) relative to Caco-2: up to 5 times
- increase in uptake of polymer, HT29-MTX-E12 over Caco-2: 5 fold
- transepithelial transport of polymer: minimal
